Common to all, as to design: expressed in transfected cells; host or cells: CHO (CHO-CXCR4, G418-selected)
In test [1] the target is T1, CXCR4 (Homo sapiens, UniProt P61073). The test can be described thus: 12G5 antibody-based competitive binding assay on CHO-CXCR4 cells. The note with it: competition with antibody 12G5 at 250 ng/mL, 4 °C, read-out: IC50, 12G5 Ab. As for the experimental part:
(§1) Gradient concentrations of CXCR4 ligands were prepared with 1% BSA/PBS. CHO-CXCR4 cells were cultured and diluted into 5 × 10^5 cells/mL in 0.5% BSA/PBS. One hundred microliters of above cell solutions were added to each well of a 96-well plate and washed twice with 0.5% BSA/PBS. Cells were then incubated with 100 μL primary 12G5 Ab (1:2000, mouse anti-human CD184 antibody, BD Biosciences, CA, USA) in 0.5% BSA/PBS except for negative control group and gradient concentrations of CXCR4 ligands for 40 min on a shaker at 4 °C.

Chains of the proteins cited; added tags and fusions are not shown.
UniProt P61073, whole entry: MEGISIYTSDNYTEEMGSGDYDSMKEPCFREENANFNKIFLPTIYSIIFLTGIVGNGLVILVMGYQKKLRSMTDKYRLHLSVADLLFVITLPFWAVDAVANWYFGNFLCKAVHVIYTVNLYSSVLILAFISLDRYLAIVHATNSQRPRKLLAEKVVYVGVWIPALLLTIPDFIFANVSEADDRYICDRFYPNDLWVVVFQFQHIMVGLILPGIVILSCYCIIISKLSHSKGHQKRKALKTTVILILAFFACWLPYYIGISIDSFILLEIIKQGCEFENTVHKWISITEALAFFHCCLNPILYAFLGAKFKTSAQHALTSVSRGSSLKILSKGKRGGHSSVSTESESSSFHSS

The target of test [2] is T1, CXCR4. The experiment in a line: FITC-CVX15-based competitive binding assay on CHO-CXCR4 cells. The note with it: competition with 400 nM FITC-CVX15, CHO-CXCR4 cells, 4 °C, 50 min.
In test [3] the target is T1, CXCR4. The experiment in a line: Three parallel CXCR4 competitive binding assays (FITC-CVX15, FITC-DV1, 12G5) compared. Conditions: summary over the three parallel assays; read-out: IC50 values (binding affinity to CXCR4). The method, then: as §1

Our source for the IC50 values is article PMC6720714, “Structural and Biological Characterizations of Novel High-Affinity Fluorescent Probes with Overlapped and Distinctive Binding Regions on CXCR4” (Molecules, 2019).

As usually defined, the IC50 is the concentration that gives 50% inhibition. Take `NCCCCN(Cc1nc2ccccc2[nH]1)[C@H]1CCCc2cccnc21` [AMD070]: the values for the IC50 at CXCR4 [1], at CXCR4 [2] and on CXCR4 [3] were 12.2 nM, 14.7 nM and below 50 nM, respectively.
